Experimental data: PMC12443469

Assays:
[1] = target: human cytoskeletal β‐actin variant p.R196C (human) (UniProt P60709)
[2] = target: human cytoskeletal β‐actin variant p.R196H (human) (UniProt P60709)
[3] = target: human cytoskeletal β‐actin variant p.R196S (human) (UniProt P60709)
[4] = target: human cytoskeletal β‐actin wild‐type (human) (UniProt P60709)
[5] = target: human myosin‐5A HMM‐like construct with calmodulin (human) (UniProt P0DP23)

bulk‐polymerization rate k obs of 2 μM pyrene actin with 5 to 40 nM Arp2/3 (+200 nM GST‐N‐WASP‐VCA) [1]	lag‐time t lag of 2 μM pyrene actin with 5 to 40 nM Arp2/3 (+200 nM GST‐N‐WASP‐VCA); falls with rising Arp2/3 [1]	bulk‐polymerization rate k obs of 2 μM pyrene actin with 5 to 40 nM Arp2/3 (+200 nM GST‐N‐WASP‐VCA) [2]	lag‐time t lag of 2 μM pyrene actin with 5 to 40 nM Arp2/3 (+200 nM GST‐N‐WASP‐VCA); falls with rising Arp2/3 [2]	bulk‐polymerization rate k obs of 2 μM pyrene actin with 5 to 40 nM Arp2/3 (+200 nM GST‐N‐WASP‐VCA) [3]	lag‐time t lag of 2 μM pyrene actin with 5 to 40 nM Arp2/3 (+200 nM GST‐N‐WASP‐VCA); falls with rising Arp2/3 [3]	bulk‐polymerization rate k obs of 2 μM pyrene actin with 5 to 40 nM Arp2/3 (+200 nM GST‐N‐WASP‐VCA) [4]	lag‐time t lag of 2 μM pyrene actin with 5 to 40 nM Arp2/3 (+200 nM GST‐N‐WASP‐VCA); falls with rising Arp2/3 [4]	average sliding velocity of TRITC phalloidin‐labelled filaments on surface‐immobilized Myo5A‐HMM, unloaded in vitro motility assay, 37 °C [5]	Substance
1.63 s⁻¹	81 s	0.411 s⁻¹	332 s	1.4 s⁻¹	113 s	2.75 s⁻¹	29 s	–	human Arp2/3 complex (from UniProt P61160 1-394; P61158 1-418; O15143 1-372; O15144 1-300; O15145 1-178; P59998 1-168; O15511 1-151)
–	–	–	–	–	–	–	–	457 nm/s	human cytoskeletal β‐actin variant p.R196H (from UniProt P60709 1-375) (natural protein)
–	–	–	–	–	–	–	–	352 nm/s	human cytoskeletal β‐actin wild‐type (from UniProt P60709 1-375) (natural protein)
